Legend:
Conditions in all cases: repeated experiment
[1] = system: HeLa (Cervix Adenocarcinoma); experiment: Cell viability analysis, cervical cancer HeLa
[2] = system: HI650 (Lung Adenocarcinoma); experiment: Cell viability analysis, lung cancer HI650
[3] = system: A549 (Lung Adenocarcinoma); experiment: Cell viability analysis, lung cancer A549

CN[C@H](CC(C)C)C(=O)N[C@H]1C(=O)N[C@@H](CC(N)=O)C(=O)N[C@H]2C(=O)N[C@H]3C(=O)N[C@H](C(=O)N[C@H](C(=O)O)c4cc(O)cc(O)c4-c4cc3ccc4O)[C@H](O)c3ccc(c(Cl)c3)Oc3cc2cc(c3O[C@@H]2O[C@H](CO)[C@@H](O)[C@H](O)[C@H]2O[C@H]2C[C@](C)(N)[C@H](O)[C@H](C)O2)Oc2ccc(cc2Cl)[C@H]1O.Cl [Vancomycin HCl (Vancocin)]
The results of antibiotic drug inhibiting cancer cell lines (cell viability analysis), HeLa [1]: 78.82 | The results of antibiotic drug inhibiting cancer cell lines (cell viability analysis), H1650 [2]: 82.92 | The results of antibiotic drug inhibiting cancer cell lines (cell viability analysis), A549 [3]: 86.65

Source: US10105357B2, “Indication of antibiotic drugs for preparation of cancer inhibition pharmaceutical composition” (LAUNX BIOMEDICAL CO., LTD., priority 2014, dated 2018)
